Measurements from patent publication US11246873B2, “Directed differentiation of oligodendrocyte precursor cells to a myelinating cell fate” (The Scripps Research Institute, priority 2011, dated 2022).

Tested on: histamine receptor
Format: cell-based, rat
Description: OPCs express mAChRs, predominantly subtypes M1, M3, and M5 (F. Ragheb et al., J Neurochem, 77, 1396 (2001)). […] Activation of M1 and M3 mAChRs is coupled to downstream signal transduction events through phospholipase C, which results in increased intracellular calcium concentrations (F. Ragheb et al., J Neurochem, 77, 1396 (2001)) (FIG. 23C). M2 and M4 mAChR activation inhibits adenylatecyclase, leading to decreased intracellular cAMP levels (C. C. Felder, FASEB J, 9, 619 (1995); M. Lopez-Ilasaca et al., Science, 275, 394 (1997)). […] Acetylcholine is a known regulator of OPC proliferation and, as such, muscarinic receptor subtypes represent a reasonable class of therapeutic targets for the modulation of OPC proliferation and differentiation (F. De Angelis et al., Dev Neurobiol, (2011)).

`CN1[C@@H]2CC[C@H]1C[C@@H](OC(c1ccccc1)c1ccccc1)C2` [benztropine] was tested, and the “effect of histamine or HTMT on benztropine activity / histamine receptor signaling” value was “no observable effect”.
